These results are taken from patent publication US7112586B2, “Substituted diamine derivatives useful as motilin antagonists” (Ortho-McNeil Pharmaceutical, Inc., priority 2000, dated 2006).

The chains behind the UniProt entries cited, without tags or fusion partners. Residues count along the entry.
UniProt G1T803, 1-400: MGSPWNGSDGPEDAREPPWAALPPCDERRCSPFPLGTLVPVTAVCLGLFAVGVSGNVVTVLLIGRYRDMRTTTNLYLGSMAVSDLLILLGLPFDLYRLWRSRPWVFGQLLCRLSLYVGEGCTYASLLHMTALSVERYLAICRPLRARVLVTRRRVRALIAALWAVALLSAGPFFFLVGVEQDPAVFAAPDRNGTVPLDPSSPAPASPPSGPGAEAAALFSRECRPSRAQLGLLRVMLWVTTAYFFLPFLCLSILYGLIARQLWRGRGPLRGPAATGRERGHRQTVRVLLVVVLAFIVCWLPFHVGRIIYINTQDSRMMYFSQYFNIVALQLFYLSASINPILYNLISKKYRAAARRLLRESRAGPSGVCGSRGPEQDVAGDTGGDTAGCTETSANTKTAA

The target in one assay is Motilin Receptor (Oryctolagus cuniculus, UniProt G1T803). The assay can be described thus: Motilin receptor binding, rabbit colon membranes, 125I porcine motilin. The following applies: for IC50: read-out: Rabbit Colon IC50.
For assay [1], the system named is motilin induced contraction. The assay can be described thus: Rabbit tissue bath procedure: inhibition of motilin induced contraction of duodenum segments. Details: species or system New Zealand White rabbit. The following applies: read-out: Tissues IC50, 3 nM porcine motilin induced contraction.

Consider `CC(C)(CCC(=O)N(Cc1ccc(F)cc1)c1cccc(OCCN2CCOCC2)c1)C(=O)N(CCc1ccccc1)Cc1ccccc1`, for which, at Motilin Receptor, the “Rabbit Colon % Inh @1 mM” value is listed as 99% and the IC50 (in general, the concentration that gives 50% inhibition) was 200 nM. In addition, the IC50 in assay [1] is 67 nM.
For the molecule `CC(CCC(=O)N(CCc1ccccc1)Cc1ccccc1)C(=O)N(Cc1ccc(F)cc1)c1cccc(OCCN2CCOCC2)c1` (stereo not shown), on Motilin Receptor, the “Rabbit Colon % Inh @1 mM” value was 61% and the IC50 is 960 nM.
On the same counts, the results for `O=C(CC1(CC(=O)N(Cc2ccc(F)cc2)c2cccc(OCCN3CCOCC3)c2)CCCC1)N(CCc1ccccc1)Cc1ccccc1` are 62% and 410 nM.
For the molecule `Cc1c(OCCN2CCCC2)cccc1N(C[C@@H]1CCC[C@H](N(Cc2cccc([N+](=O)[O-])c2)C(=O)C(Cl)(Cl)Cl)C1)C(=O)c1ccc(F)cc1`, on Motilin Receptor, the “Rabbit Colon % Inh @1 mM” value amounted to 91% and the IC50 was 9 nM. In addition, the IC50 in assay [1] turned out to be 48 nM.
